From PubChem
Most compounds without a hit are left out; they make up all but 16% or so of the library.
uPA surface inh: cell surface uPA generation inhibition; cell surface uPA generation assay, qHTS; Potency, µM (doses to about 38.3 µM), for the others: top-dose activity change, negative = inhibition, actives largely listed as inhibitors; 0.31% of 330,000 active; AID 540303; active means well fitted inhibition curve with a large enough effect; inconclusive means small, poorly fitted or top-dose-only effect; inactive means no such curve, though single readings can be large or run the other way; tested in mouse RAW 264.7 cells; further: potency means the concentration at half of the fitted maximal effect; on the % scale 0 is the no-effect control and ±100 the full control effect; nearly all actives have a fitted effect of over 55% in size
miR-21 FLuc: miR-21 reporter, rising signal | AID 2288 | HeLa miR-21 FLuc reporter, luciferase, 48 h | 340,000 tested, under 10 active | Potency, µM (titrated, usually from 38.3 µM), for the others: at the top dose reporter change, positive = more light; active = well fitted rising curve with a large enough effect; inconclusive = small, poorly fitted or top-dose-only effect; inactive = no such curve, though single readings can be large or run the other way;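 also: % of control where 0% means no effect; miR-21 action dims this reporter so a rising signal means less miR-21 action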
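Using DMEM plus 10% FBS, HeLa miR-21-FLuc cells are incubated with test compounds (final up to about 40uM) for 48 hours; firefly luciferase signal is then imaged following reagent-mediated lysis.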
TDP1 cell CPT: DT40-hTDP1 cell growth loss with CPT. chicken DT40 Tdp1-/-;hTDP1 cells + 20 nM CPT, ATP luminescence, 48 h. 12% of 420,000 active. AID 686979. Potency, µM (doses to about 46.2 µM), for the others: at the top dose activity change, negative = growth inhibition, most hits filed as inhibitors; further: potency means the concentration at half of the fitted maximal effect; on the % scale 0 is the no-effect control and ±100 the full control effect; nearly all actives have a fitted effect of over 55% in size
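Chicken DT40 Tdp1-/- cells stably complemented with human TDP1 were seeded at 400 cells/well in medium containing 20 nM camptothecin, exposed to pin-transferred compounds, and grown at 37 °C for at least 48 hr. Viability was read as ATP luminescence.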
TDP1 block: inhibitors of human tyrosyl-DNA phosphodiesterase TDP1. Potency, µM (highest dose often 130 µM), without a hit: at the top dose activity change, negative = inhibition, actives largely listed as inhibitors. AID 485290. 0.28% of 350,000 active. recombinant TDP1, AlphaScreen DNA substrate cleavage. Q9NUW8; further: potency means the concentration at half of the fitted maximal effect; on the % scale 0 is the no-effect control and ±100 the full control effect; nearly all actives have a fitted effect of over 40% in size
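Signal: AlphaScreen proximity between streptavidin donor and anti-FITC acceptor beads on intact substrate. Reaction: Tdp1 1 nM, substrate 15 nM final, 5 min RT after 15 min compound preincubation.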
DT40 TDP1 no CPT: qHTS for Inhibitors of human tyrosyl-DNA phosphodiesterase 1 (TDP1): qHTS in cells in absence of CPT; 15% of 420,000 active; Potency, µM (top dose mostly 46.2 µM), for inactives: at the highest dose activity change, negative = growth inhibition, hits mostly inhibitors; DT40 Tdp1-/- hTDP1 cells, no CPT, ATP luminescence, 48 h; AID 686978, 2013; further: potency means the concentration at half of the fitted maximal effect; on the % scale 0 is the no-effect control and ±100 the full control effect; nearly all actives have a fitted effect of over 55% in size
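Growth of hTDP1-complemented DT40 Tdp1-knockout cells is measured by ATP luminescence after at least 48 hr compound exposure at 37 °C, with DMSO substituting for the 20 nM CPT used in the parallel screen.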
An asterisk follows results filed as active; [ ] = dose if it differs, or a comment. Unless noted, the call rests on the fitted dose curve; in most records, active means well fitted curve in the direction sought with a large enough effect; inconclusive means small, poorly fitted or top-dose-only effect, or another doubt; inactive means no such curve, though single readings can be large; an effect the other way counts as inactive or inconclusive.

Screening COc1cc(-c2noc(C)c2/C=C/c2ccc(N)cc2)cc(OC)c1OC returned uPA surface inh inconclusive, miR-21 FLuc 9%, TDP1 cell CPT 1.2µM* and DT40 TDP1 no CPT 1µM*.
Screening Cc1ccc(/C=C/C(=O)c2ccc(C)cc2)cc1 returned miR-21 FLuc -18%, TDP1 cell CPT -26%, TDP1 block 1% and DT40 TDP1 no CPT inconclusive.
Screening Cc1cc(O)c(C(=O)/C=C/c2ccc(Cl)cc2)c(=O)o1 returned uPA surface inh 2%, miR-21 FLuc -42%, TDP1 cell CPT inconclusive and DT40 TDP1 no CPT inconclusive.
`Cc1ccc(CNC(=O)c2ccc([N+](=O)[O-])o2)cc1` gave uPA surface inh -9%, miR-21 FLuc 24%, TDP1 cell CPT 16µM*, TDP1 block -1% and DT40 TDP1 no CPT inconclusive.
Cc1ccc(-c2csc(NC(=O)c3ccc([N+](=O)[O-])o3)n2)cc1 was read as uPA surface inh -3%, miR-21 FLuc -1%, TDP1 cell CPT inconclusive, TDP1 block 6% and DT40 TDP1 no CPT inconclusive.
`Cc1ccc(NC(=S)NCc2ccccc2)cc1[N+](=O)[O-]` gave uPA surface inh 6%, miR-21 FLuc -1%, TDP1 cell CPT inconclusive, TDP1 block -1% and DT40 TDP1 no CPT inconclusive.
Cc1ccc(/C=C/C(=O)c2ccc([N+](=O)[O-])o2)cc1 was read as uPA surface inh inconclusive, TDP1 cell CPT 1.6µM*, TDP1 block 0% and DT40 TDP1 no CPT 2.1µM*.
O=C(/C=C/c1ccc(Cl)cc1)c1ccc([N+](=O)[O-])o1 was read as uPA surface inh inconclusive, TDP1 cell CPT 1µM*, TDP1 block 0% and DT40 TDP1 no CPT 0.65µM*.
Cc1ccc(CNC(=S)Nc2ccc(C)c([N+](=O)[O-])c2)cc1 was read as uPA surface inh 1%, miR-21 FLuc -13%, TDP1 cell CPT 23µM*, TDP1 block 0% and DT40 TDP1 no CPT 15µM*.
For Cc1csc2nc(SCC(=O)N3CCN(c4ccccc4)CC3)[nH]c(=O)c12 the results were uPA surface inh 4%, miR-21 FLuc -7%, TDP1 cell CPT inconclusive, TDP1 block 2%[56.1 µM] and DT40 TDP1 no CPT inconclusive.
COc1cc(C(=O)Nc2nc3nc(-c4ccccc4)cc(=O)n3[nH]2)cc(OC)c1OC was read as miR-21 FLuc -2%, TDP1 cell CPT 1%, TDP1 block 2% and DT40 TDP1 no CPT 5%.
For Cc1ccc(C2=NN(Cc3nnc(-c4ccccc4)o3)C(=O)SC2)cc1 the results were uPA surface inh 0%, miR-21 FLuc -4%, TDP1 cell CPT inconclusive, TDP1 block 3% and DT40 TDP1 no CPT inconclusive.

An excerpt of the results above, for reference:
Cc1ccc(-c2csc(NC(=O)c3ccc([N+](=O)[O-])o3)n2)cc1 was read as uPA surface inh -3%, miR-21 FLuc -1%, TDP1 cell CPT inconclusive, TDP1 block 6% and DT40 TDP1 no CPT inconclusive.
`Cc1ccc(NC(=S)NCc2ccccc2)cc1[N+](=O)[O-]` gave uPA surface inh 6%, miR-21 FLuc -1%, TDP1 cell CPT inconclusive, TDP1 block -1% and DT40 TDP1 no CPT inconclusive.
Cc1ccc(/C=C/C(=O)c2ccc([N+](=O)[O-])o2)cc1 was read as uPA surface inh inconclusive, TDP1 cell CPT 1.6µM*, TDP1 block 0% and DT40 TDP1 no CPT 2.1µM*.
O=C(/C=C/c1ccc(Cl)cc1)c1ccc([N+](=O)[O-])o1 was read as uPA surface inh inconclusive, TDP1 cell CPT 1µM*, TDP1 block 0% and DT40 TDP1 no CPT 0.65µM*.

Next section
O=C(Cn1ncc2ccsc2c1=O)N1CCN(c2ccccc2F)CC1 was read as miR-21 FLuc -3% and TDP1 block 4%.
`Cc1ccc(S(=O)(=O)Oc2ccc(C3C4=C(CCCC4=O)OC4=C3C(=O)CCC4)cc2)cc1` gave uPA surface inh 3%, miR-21 FLuc 2%, TDP1 cell CPT 23µM*, TDP1 block 4% and DT40 TDP1 no CPT 16µM*.
Screening CN(C)c1ccc(C2C3=C(CCCC3=O)OC3=C2C(=O)CCC3)cc1 returned uPA surface inh 6%, miR-21 FLuc -7%, TDP1 cell CPT -15%, TDP1 block 7% and DT40 TDP1 no CPT -2%.
Screening Cc1ccc2nc3c(nc2c1C)C(O)=C3O returned uPA surface inh 2%, miR-21 FLuc -5%, TDP1 cell CPT 15µM* and DT40 TDP1 no CPT inconclusive.
For Cc1cc(C(N)=O)c2ccccc2n1 the results were uPA surface inh 11%, miR-21 FLuc 0%, TDP1 cell CPT 1%, TDP1 block 2% and DT40 TDP1 no CPT 0%.
NC(=O)c1cc2ccncc2c2ccccc12 was read as uPA surface inh -7%, miR-21 FLuc inconclusive, TDP1 cell CPT 13µM*, TDP1 block 6% and DT40 TDP1 no CPT 6.5µM*.
Screening Cc1cc(Oc2cccc3c2S(=O)(=O)N(C2CCCC2)CC(COCc2ccccc2)O3)cc(C)c1C (stereo unspecified) returned uPA surface inh 1%, TDP1 cell CPT 23µM* and DT40 TDP1 no CPT 16µM*.
Screening CCCCN1CC(COCc2ccccc2)Oc2ccccc2S1(=O)=O (stereo unspecified) returned uPA surface inh -10%, TDP1 cell CPT inconclusive, TDP1 block -5%[56.1 µM] and DT40 TDP1 no CPT 23µM*.
Screening CCCCN1CC(COCc2ccccc2)Oc2cccc(Oc3ccc(OC)cc3)c2S1(=O)=O (stereo unspecified) returned uPA surface inh 12%, TDP1 cell CPT inconclusive and DT40 TDP1 no CPT 18µM*.
For O=S1(=O)c2ccccc2OC(COCc2ccccc2)CN1Cc1ccccc1 (stereo unspecified) the results were uPA surface inh 2%, TDP1 cell CPT inconclusive, TDP1 block -3%[56.1 µM] and DT40 TDP1 no CPT inconclusive.
For CCOC(=O)C1CCN(C(=O)COC(=O)CNC(=O)c2ccc(OC)cc2)CC1 the results were uPA surface inh 2%, miR-21 FLuc 3%, TDP1 cell CPT 4%, TDP1 block -3% and DT40 TDP1 no CPT -9%.
For CCCCCCCCNC(=O)CC(NS(=O)(=O)c1ccc(NC(C)=O)cc1)C(C)C (stereo unspecified) the results were uPA surface inh 2%, miR-21 FLuc 4%, TDP1 cell CPT -75%, TDP1 block -3% and DT40 TDP1 no CPT inconclusive.
For CCN(CC)C(=O)c1ccc2sc([C@H]3C[C@H](O)[C@@H](CO)O3)nc2c1 the results were TDP1 cell CPT 16% and DT40 TDP1 no CPT -8%.
`CC(C)C[C@H]1CNC(=S)N1C[C@H]1CCCN1C[C@H](Cc1ccccc1)N1C[C@H](Cc2ccc(O)cc2)N(CC2CCCCC2)C1=S` gave TDP1 cell CPT 16µM* and DT40 TDP1 no CPT 23µM*.
`CC(C)C[C@H]1CNC(=S)N1CC1CCCN1C[C@H](Cc1ccc(O)cc1)N1C[C@H](Cc2ccccc2)N(CC2CCCCC2)C1=S` (stereo partly specified) gave uPA surface inh 13%, TDP1 cell CPT 5.8µM* and DT40 TDP1 no CPT 5.8µM*.
CC(C)C[C@H]1CNC(=S)N1C[C@H]1CCCN1C[C@H](Cc1ccc(O)cc1)N1C[C@H](Cc2ccccc2)N(CC2CCCCCC2)C1=S was read as TDP1 cell CPT 18µM* and DT40 TDP1 no CPT 18µM*.
`N/C(=N\c1nc2c(c(=O)[nH]1)CCC2)Nc1cccc2ccccc12` gave miR-21 FLuc -3%, TDP1 cell CPT inconclusive, TDP1 block 3% and DT40 TDP1 no CPT inconclusive.
Screening CCOC(=O)C1CCN(c2nc(-c3ccccc3)nc3c2oc2ccccc23)CC1 returned uPA surface inh 8%, miR-21 FLuc 5%, TDP1 cell CPT -19%, TDP1 block -2% and DT40 TDP1 no CPT inconclusive.
